Tested on: cGMP
Experiment: cGMP measurement in brain tissue of non ischemic rats
Type: in vivo, rat
Conditions: 2 or 5 mg/kg for 7 days, vs control
Experimental: Levels of cGMP were measured in non ischemic rat brain. cGMP was determined by a commercially available low pH Immunoassay kit (R&D systems Inc, Minneapolis, Minn.). The sensitivity of the assay was approximately 0.6 pmol/ml for the non-acetylated procedure. The brain was rapidly removed and the cortex and the cerebellum were separated. The brain tissue was weighed and homogenized in 10 volume of 0.1 N HCl containing 1 mM 3-isobutyl-1-methylxanthine (IBMX).
To examine whether administration of VIAGRA™ affects brain cGMP levels, non ischemic rats were treated with VIAGRA™ at 2 mg/kg (n=6), 5 mg/kg (n=6) or saline (n=10) for 6 consecutive days. These rats were sacrificed one hour after the last treatment for measurement of brain cGMP. cGMP was determined by a commercially available low pH Immunoassay kit (R&D systems Inc, Minneapolis, Minn.).

Q: For `CCCc1nn(C)c2c(=O)[nH]c(-c3cc(S(=O)(=O)N4CCN(C)CC4)ccc3OCC)nc12` [VIAGRA™, sildenafil], which “cerebellar levels of cGMP” value is on record?
A: not

Q: And the “cortical levels of cGMP” value?
A: significantly (p<0.05) increased

Reference: patent US8383626B2, “Nitric oxide donors for inducing neurogenesis” (Henry Ford Health System, priority 1999, dated 2013)
